Measurements from patent publication US20160166556A1, “METHODS OF TREATING PULMONARY HYPERTENSION” (Gilead Sciences, Inc., priority 2014, published 2016).
Where two headings read alike, the source gives them in different places.

Test system: Su/Hx rats
Details: 4 weeks; for plasma levels of BNP: Su/Hx vehicle 0.23±0.1, sham 0.1±0.01; for RV hypertrophy (RV:LV, RV weight normalized to LV and septum): Su/Hx vehicle 0.49±0.1, sham 0.25±0.01; for diastolic PAP: Su/Hx vehicle 35±8, sham 11±2; for mean PAP: Su/Hx vehicle 49±11, sham 15±1; for completely muscularized arterioles: Su/Hx vehicle about 56.6%; for systolic PAP: mean±SEM, Su/Hx vehicle 79±21, sham 19±1

O=C(Nc1cccc(-c2nncn2C2CC2)c1)c1cc(-n2cnc(C3CC3)c2)ccn1 [Compound 4, 4-(4-cyclopropyl-1H-imidazol-1-yl)-N-(3-(4-cyclopropyl-4H-1,2,4-triazol-3-yl)phenyl)picolinamide]
plasma levels of BNP (0.1% in chow): 0.1 ± 0.05 ng/mL
RV hypertrophy (RV:LV, RV weight normalized to LV and septum) (0.1% in chow): 0.39±0.1
diastolic PAP (0.1% in chow): 26±7 mmHg
mean PAP (0.1% in chow): 35±11 mmHg
completely muscularized arterioles (0.1% in chow): 35.6%
systolic PAP (0.1% in chow): 52±22 mmHg
plasma levels of BNP (0.2% in chow): 0.1 ± 0.1 ng/mL
RV hypertrophy (RV:LV, RV weight normalized to LV and septum) (0.2% in chow): 0.35±0.11
diastolic PAP (0.2% in chow): 20±5 mmHg
mean PAP (0.2% in chow): 27±8 mmHg
completely muscularized arterioles (0.2% in chow): 32.6%
systolic PAP (0.2% in chow): 36±13 mmHg
